Results published in US20040073295.

Target: human protein C (UniProt P04070)

Substance: human thrombin-rabbit TM complex
- Kcat (min^-1) of protein C activation; AcPC 0 %, POPC 100 %: 29 min⁻¹
- Kcat (min^-1) of protein C activation; AcPC 50 %, POPC 50 %, monomer (M): 28 min⁻¹
- Kcat (min^-1) of protein C activation; AcPC 50 %, POPC 50 %, polymer (P): 18 min⁻¹
- Kcat (min^-1) of protein C activation; AcPC 80 %, POPC 20 %, monomer (M): 27 min⁻¹
- Kcat (min^-1) of protein C activation; AcPC 80 %, POPC 20 %, polymer (P): 18 min⁻¹
- Kcat (min^-1) of protein C activation; AcPC 100 %, POPC 0 %, monomer (M): 30 min⁻¹
- Kcat (min^-1) of protein C activation; AcPC 100 %, POPC 0 %, polymer (P): 24 min⁻¹
- Kcat (min^-1) of protein C activation; no lipid (AcPC % -, POPC % -): 39 min⁻¹
- Km (µM) of protein C activation; AcPC 0 %, POPC 100 %: 1.3 µM
- Km (µM) of protein C activation; AcPC 50 %, POPC 50 %, monomer (M): 1 µM
- Km (µM) of protein C activation; AcPC 50 %, POPC 50 %, polymer (P): 2.1 µM
- Km (µM) of protein C activation; AcPC 80 %, POPC 20 %, monomer (M): 1.4 µM
- Km (µM) of protein C activation; AcPC 80 %, POPC 20 %, polymer (P): 3 µM
- Km (µM) of protein C activation; AcPC 100 %, POPC 0 %, monomer (M): 1.1 µM
- Km (µM) of protein C activation; AcPC 100 %, POPC 0 %, polymer (P): 3 µM
- Km (µM) of protein C activation; no lipid (AcPC % -, POPC % -): 4.2 µM
- Km (µM); Free TM: 3.6 µM
- Km (µM); TM in AcPC vesicles: 0.86 µM
- Km (µM); TM in POPC vesicles: 0.66 µM
- Km (µM); TM in polymerized AcPC vesicles: 4.5 µM
- kcat (min^-1); Free TM: 7 min⁻¹
- kcat (min^-1); TM in AcPC vesicles: 2.6 min⁻¹
- kcat (min^-1); TM in POPC vesicles: 4.6 min⁻¹
- kcat (min^-1); TM in polymerized AcPC vesicles: 5.7 min⁻¹
- kcat/Km (min^-1· µM^-1); Free TM (min^-1· µM^-1): 1.94
- kcat/Km (min^-1· µM^-1); TM in AcPC vesicles (min^-1· µM^-1): 3.02
- kcat/Km (min^-1· µM^-1); TM in POPC vesicles (min^-1· µM^-1): 6.97
- kcat/Km (min^-1· µM^-1); TM in polymerized AcPC vesicles (min^-1· µM^-1): 1.27
